Measured values published in PMC6099588.

What was measured:
HCV E2 glycoprotein [1] = experiment: Western blot of E2 glycoprotein incorporated into concentrated HCVpp; conditions: Western blot of 100× concentrated HCVpp
HCV E2 glycoprotein [2] = experiment: Western blot of E2 glycoprotein accumulation in transfected HEK293T cells; conditions: anti-E2 MAb AP33, 48 h post transfection

SMILES | amount of E2 glycoprotein incorporated into HCVpp (HCV E2 glycoprotein [1]) | accumulation of E2 glycoprotein in HEK293T cells (HCV E2 glycoprotein [2])
CC(=O)O[C@H]1[C@H](C)O[C@H](OC[C@H]2O[C@@H](n3ccc(=O)n(C(=O)c4ccccc4)c3=O)[C@@H]3OC(C)(C)O[C@@H]32)C[C@@H]1O[Si](C)(C)C(C)(C)C [Compound 2] | no reduction in the amount of the protein | –
CC(=O)N[C@H]1[C@@H](O[C@@H]2O[C@H](C[C@@H](O)[C@H]3O[C@@H](n4ccc(=O)[nH]c4=O)[C@H](O)[C@@H]3O)[C@H](O)[C@H](O)[C@H]2NC(=O)/C=C/CCCCCCCCCC(C)C)O[C@H](CO)[C@@H](O)[C@@H]1O [Tunicamycin, reference compound] | significant reduction in the amount of E2 glycoprotein incorporated into HCVpp | significant disruption in the accumulation of E2 glycoprotein
